Usually EC50 stands for the concentration giving half of the maximal effect. The low end stands for higher potency in that assay, the high end for lower potency in that assay.

The source of these data is US8530521B2, “Nitrooxy cycloalkane derivatives” (Merck Sharp & Dohme Corp., priority 2008, dated 2013).

The experiment concerns isolated rabbit thoracic aorta preparations. The experiment can be described thus: Vessel relaxation in isolated rabbit thoracic aorta rings precontracted with noradrenaline. The following applies: for Max. Relaxation: @ 30 μM; for EC50: aortic rings contracted with noradrenaline 1 μM, functional endothelium, concentration producing 50% of the maximum relaxation.

In the case of `O=[N+]([O-])O[C@H]1C[C@H](O)C[C@H]1O[N+](=O)[O-]`, the “Max. Relaxation” value came out at 78% and the EC50 stood at 4.7 µM.

For `O=[N+]([O-])O[C@H]1C[C@@H](O)C[C@H]1O[N+](=O)[O-]`, the “Max. Relaxation” value is recorded as 69% and the 50% effective concentration (EC50) was 4.4 µM.
